RAD54 branch: blocks human RAD54 Holliday junction branch migration; FAM/BHQ fluorescence; Q92698; AID 602329; actives 0.14% (n = 360,000); inhibition, % at 10.4 µM;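 active = mean normalized replicate activity at least 40 and at least half of replicates scoring 40 or more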;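 note: 0% = median of neutral control wells and 100% = median of positive control wells; inhibitors cause a drop in the FAM fluorescence signal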
E-selectin induc: E-selectin induction on HUVECs; P16581; HUVEC E-selectin immunofluorescence imaging; normalized: neutral wells 0, TNF-alpha wells 100; activation, % at 7.58 µM; actives 0.37% (n = 260,000); AID 686992;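 active = mean E-selectin-positive cell signal at least 10% of the positive control, reached in at least 60% of replicates, without over 20% cell loss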
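Material: HUVEC primary endothelial cells; Amount: 3,000 cells per well; Dosing: single concentration; Medium: EGM-2 growth medium on 0.1% gelatin-coated wells; Read-out basis: percent E-selectin-positive cells; Signal: immunofluorescence imaging; Control set: TNF-alpha, DMSO.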
XiGFP reactiv: reactivates the inactive X chromosome in mouse fibroblasts; XiGFP mouse fibroblasts, % GFP-positive cells imaging, 3 d; cells co-treated with 5-aza-dC sensitizer; scaled so ellipticine positive control = 100%; activation, % at 7.58 µM; actives 0.055% (n = 360,000);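 active = mean normalized replicate activation at least 10% and every replicate at or above 10%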;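 note: 0% = median of on-plate neutral control wells and 100% = ellipticine 6 µM median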
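System: XiGFP fibroblasts, SV40-immortalized. Medium: DMEM plus 5-aza-dC sensitizer. Doses: single point. Timing: 3 d treatment, 15 min room-temperature fixation. Control set: ellipticine 6 µM.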
Yeast UUG start-1: modulators of start codon recognition fidelity in yeast. S. cerevisiae UUG-firefly luciferase reporter, luminescence/redox ratio. activity score, % at 18.7 µM. 0.13% of 350,000 active. AID 602363;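 active = replicate mean at a twofold rise or more, about +100% in these data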;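 also: firefly luciferase made from a UUG start codon reports start codon fidelity; reporter light over untreated wells divided by growth signal over untreated wells; some hits fall short of that in this replicate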
RAD52 anneal inh: inhibitors of human RAD52 DNA annealing | P43351 | recombinant RAD52 DNA annealing, FRET fluorescence | inhibition, % at 18.7 µM | actives 0.46% (n = 360,000);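 active = every replicate showing at least 50% inhibition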
Yeast UUG start-2: alters UUG start codon use in yeast. AID 652061. shares compounds with Yeast UUG start-1. activation, % at 38 µM. S. cerevisiae UUG-start firefly luciferase, luminescence, 4 h; 100% means double the DMSO signal. 540 tested, under 10 active;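 active = signal increase whose fitted curve reaches an absolute level of 40 at a concentration under 10 µM; inactive = activity opposite to the expected increase, or the rest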
An asterisk follows results filed as active; i = inactive; nt = no result given; ! = not active in a repeat. Shown are actives, neighbours in structure and some others; about 0.73% of the full set was active somewhere.

(1) Cc1cc(=O)[nH]c(=O)n1Cc1ccccc1
(2) COC(=O)c1ccc(Cc2ccc(C(=O)OC)o2)o1
(3) COC(=O)c1ccc(COC(=O)c2ccc(CO)cc2)o1
(4) O=C(c1cccnc1)N1C[C@@H]2[C@H](c3ccccc31)[C@@H](CO)N2C(=O)C1CCOCC1
(5) O=C(c1cccnc1)N1C[C@@H]2[C@H](c3ccccc31)[C@H](CO)N2C(=O)C1CC1
(6) Cc1ccc(OCCCCn2c(CO)nc3ccccc32)cc1
(7) CCCN(CC(=O)Nc1ccccc1C)C(=O)Cc1cccs1
(8) CCCN(CC(=O)Nc1ccccc1C)C(=O)/C=C/c1cccs1

entry no. | 1 | 2 | 3 | 4 | 5 | 6 | 7 | 8
RAD54 branch | 7.5 | 2.7 | -0.4 | -1.6 | -1.3 | -7.9 | -7.1 | 3.5
E-selectin induc | 1.5 | nt | nt | -0.4 | 0.1 | nt | -0.7 | nt
XiGFP reactiv | 0.0 | nt | 0.5 | -0.1 | 0.0 | 0.0 | 0.0 | -0.1
Yeast UUG start-1 | 195.8* | -11.0 | 185.2* | 116.7* | 115.5* | 130.0* | -16.0 | active
RAD52 anneal inh | -1.3 | -10.4 | -8.4 | -9.1 | -8.4 | -7.2 | 11.4 | -18.0
Yeast UUG start-2 | 1.4 | nt | -0.5 | i | i | 4.4 | nt | -4.4

(9) O=C(C[C@@H]1CC[C@H](NC(=O)Cc2cccnc2)[C@H](CO)O1)Nc1ccccc1
(10) CCCN(CC#CC(O)(c1ccccc1)c1cccnc1)CCC (stereo unspecified)
(11) CCN(CC)CCC#CC(O)(c1ccccc1)c1ccccc1
(12) OC(C#CCN1CCCC1)(c1ccccc1)c1cccnc1 (stereo unspecified)
(13) OC(C#CCN1CCCCCC1)(c1ccccc1)c1cccnc1 (stereo unspecified)
(14) CC(C)C(O)(C#CCN1CCCC1)c1ccccc1 (stereo unspecified)
(15) CC(C)NC(=O)Nc1ccc2c(c1)CC(=O)N([C@@H](C)CO)C[C@@H](C)[C@@H](CN(C)CC1CCCCC1)O2
(16) C[C@H]1CN([C@@H](C)CO)C(=O)c2cc(NC(=O)CCC(F)(F)F)ccc2O[C@H]1CN(C)Cc1ccccc1

entry no. | 9 | 10 | 11 | 12 | 13 | 14 | 15 | 16
RAD54 branch | nt | nt | nt | 5.7 | nt | nt | -2.7 | -0.8
E-selectin induc | -0.4 | nt | nt | 0.2 | nt | nt | 0.0 | 0.0
XiGFP reactiv | -0.3 | 0.0 | 0.3 | 0.0 | 0.3 | nt | 0.2 | 0.3
Yeast UUG start-1 | nt | nt | nt | 133.6* | nt | nt | 8.8 | 3.1
RAD52 anneal inh | -7.5 | 3.8 | nt | -6.8 | -14.8 | nt | 0.1 | 2.7
Yeast UUG start-2 | nt | -2.7 | nt | -4.0 | 21.8 | -1.2 | nt | nt

(17) C[C@H]1CN([C@@H](C)CO)C(=O)c2c(c3ccccc3n2C)-c2ccccc2CO[C@@H]1CN(C)C(=O)[C@H]1CCCN1C
(18) Cn1nc(CC(=O)Nc2ccc(OC(=O)c3ccccc3)cc2)c2ccccc2c1=O
(19) COc1ccc(CCNC(=O)CNC(=O)c2nn(-c3ccc(OC)c(OC)c3)c(=O)c3ccccc23)cc1OC
(20) Cn1nc(CC(=O)Nc2ccc3c(c2)CCC3)c2ccccc2c1=O
(21) COc1ccc(NC(=O)Cc2nn(C)c(=O)c3ccccc23)cc1
(22) Cn1nc(CC(=O)Nc2ncc(Br)s2)c2ccccc2c1=O
(23) COc1ccc(NC(=O)COc2ccc(-c3nn(C)c(=O)c4ccccc34)cc2)cc1
(24) COc1ccc(CCNC(=O)Cc2nn(C)c(=O)c3ccccc23)cc1OC

entry no. | 17 | 18 | 19 | 20 | 21 | 22 | 23 | 24
RAD54 branch | -0.1 | nt | 4.9 | 1.2 | nt | -5.2 | 2.7 | -12.1
E-selectin induc | -3.4 | nt | -0.1 | nt | nt | nt | 0.0 | nt
XiGFP reactiv | 0.5 | nt | 0.0 | nt | nt | nt | 0.3 | nt
Yeast UUG start-1 | nt | nt | -5.0 | -9.7 | nt | -20.1 | -0.3 | 6.1
RAD52 anneal inh | 30.4 | nt | 4.0 | nt | nt | nt | -8.2 | nt
Yeast UUG start-2 | nt | i | nt | -3.5 | i | nt | nt | -7.6

(25) O=C(O)C[C@@H]1CC[C@H](NC(=O)Nc2ccccc2)[C@@H](CO)O1
(26) Cc1ccc(N2CC(C(=O)Nc3nnc(SCC(N)=O)s3)CC2=O)cc1 (stereo unspecified)
(27) Cc1cc(N2CCOCC2)nc2ccc(NC(=O)C3CCCCC3)cc12
(28) Cc1cc(N2CCOCC2)nc2ccc(NC(=S)N3CCCCC3C)cc12 (stereo unspecified)
(29) COc1ccc(NC(=O)c2noc(C(C)C)c2[N+](=O)[O-])cc1
(30) CCN1CCN(Cc2ccc(NC(=O)c3ccc(C)c(NC(=O)N4CCNC4=O)c3)cc2C(F)(F)F)CC1
(31) Cc1noc(C)c1S(=O)(=O)N1CCCC(C(=O)Nc2cccnc2)C1 (stereo unspecified)
(32) O=C(CN1CCCc2ccccc21)N/N=C/c1ccc(F)cc1F

entry no. | 25 | 26 | 27 | 28 | 29 | 30 | 31 | 32
RAD54 branch | -3.7 | 5.9 | -3.1 | 3.6 | -1.1 | -6.6 | -1.5 | -1.2
E-selectin induc | -0.5 | -0.6 | -1.1 | nt | nt | -0.1 | nt | nt
XiGFP reactiv | -0.5 | 0.3 | 0.0 | 0.3 | 0.0 | 0.0 | nt | 0.1
Yeast UUG start-1 | -8.4 | 163.9* | -11.2 | 143.4* | 528.3* | 130.6*! | 614.1* | -21.7
RAD52 anneal inh | -15.5 | -13.7 | 5.4 | -15.1 | -10.3 | -1.1 | nt | -11.9
Yeast UUG start-2 | nt | 0.3 | nt | -0.3 | -3.3 | 13.2 | -4.5 | nt

(33) O=C(CN1CCCc2ccccc21)N/N=C/c1ccccc1O
(34) CN1C(=O)c2cc(NC(=O)C3CCCCC3)ccc2OC[C@H]2O[C@H](CC(=O)NC3CCCC3)CC[C@H]21
(35) CC(C)n1cc(C(=O)c2ccccc2O)cc(C#N)c1=O
(36) O=C(Nc1cccnc1Cl)c1cccc(F)c1
(37) Cc1cccc(C(=O)Nc2cccnc2Cl)c1
(38) CS(=O)(=O)N(CC1CCC1)C[C@H]1N[C@@H](CO)[C@H]1c1ccccc1
(39) Cn1c(C(=O)O)c(C=O)c2ccccc21
(40) Cc1c(C(=O)C(C)C)n(C)c2ccccc12

entry no. | 33 | 34 | 35 | 36 | 37 | 38 | 39 | 40
RAD54 branch | 3.0 | -2.5 | -9.5 | nt | -4.2 | -0.9 | -8.4 | 0.0
E-selectin induc | nt | 0.0 | nt | 3.8 | nt | 0.0 | 3.2 | nt
XiGFP reactiv | 0.2 | 0.0 | 0.9 | 0.1 | 0.0 | 0.1 | 0.1 | nt
Yeast UUG start-1 | 66.9* | 6.7 | 229.8* | nt | 145.9* | -15.1 | -8.7 | 434.9*
RAD52 anneal inh | nt | 0.1 | -5.8 | -6.5 | -16.3 | nt | -10.4 | nt
Yeast UUG start-2 | 10.0 | nt | 8.0 | nt | 0.7 | nt | nt | 18.1

(41) O=C(C[C@H]1C=C[C@H](NC(=O)c2ccncc2)[C@H](CO)O1)NCC1CCCCC1
(42) Cc1ccccc1NC(=O)/C(=C/c1ccccc1)c1ccccc1
(43) O=C(Nc1ccccc1)/C(=C/c1ccccc1)c1ccccc1
(44) CNC[C@H]1Oc2ccc(NS(=O)(=O)c3ccc(F)cc3)cc2C(=O)N([C@H](C)CO)C[C@@H]1C
(45) Cc1c(P(=O)(c2ccccc2)c2ccccc2)c2ccccc2n1C
(46) CCN(CC)c1ccc(C=Nc2ccc(C#N)cc2)c(O)c1
(47) Cc1c(C(=O)CN2CCCC(C)(C)C2)c2ccccc2n1C
(48) O=c1c2c(n3cnnc3n1-c1ccccc1)-c1ccccc1CC21CCCCC1

entry no. | 41 | 42 | 43 | 44 | 45 | 46 | 47 | 48
RAD54 branch | 7.6 | -8.2 | -9.6 | 1.1 | -7.7 | 0.4 | -2.5 | 5.9
E-selectin induc | -0.3 | nt | nt | nt | 0.0 | nt | nt | nt
XiGFP reactiv | -0.2 | nt | nt | -0.8 | 0.2 | nt | 0.3 | nt
Yeast UUG start-1 | 8.5 | 102.1* | -14.5 | 22.5 | 173.3* | 465.7* | active | active
RAD52 anneal inh | -0.9 | -10.1 | nt | 4.9 | -1.4 | nt | -7.4 | nt
Yeast UUG start-2 | nt | -1.1 | nt | nt | 2.0 | -6.4 | -0.7 | -9.5

Single records (already shown). Values in the order: RAD54 branch, E-selectin induc, XiGFP reactiv, Yeast UUG start-1, RAD52 anneal inh, Yeast UUG start-2
`Cc1ccccc1NC(=O)/C(=C/c1ccccc1)c1ccccc1` is entered as -8.2, nt, nt, 102.1*, -10.1, -1.1
`Cc1c(P(=O)(c2ccccc2)c2ccccc2)c2ccccc2n1C` is entered as -7.7, 0.0, 0.2, 173.3*, -1.4, 2.0
`CNC[C@H]1Oc2ccc(NS(=O)(=O)c3ccc(F)cc3)cc2C(=O)N([C@H](C)CO)C[C@@H]1C` is entered as 1.1, nt, -0.8, 22.5, 4.9, nt

Other entries:
(49) CC(=O)NC[C@H]1[C@H](c2ccc(-c3cccnc3)cc2)[C@@H](CO)N1C(=O)C1CC1
(50) O=C(C[C@H]1C[C@@H]2c3cc(NC(=O)C4CCC4)ccc3O[C@@H]2[C@H](CO)O1)NCc1ccccc1F
(51) CO[C@H]1CN(C)C(=O)c2ccc(NC(=O)c3nc4ccccc4s3)cc2OC[C@@H](C)N(Cc2ccncc2)C[C@H]1C
(52) C1CN(c2nc3nonc3n3nnnc23)CCO1

entry no. | 49 | 50 | 51 | 52
RAD54 branch | 2.9 | 5.0 | -13.7 | 1.8
E-selectin induc | 0.0 | -0.4 | 0.1 | nt
XiGFP reactiv | 0.2 | 0.2 | 0.0 | nt
Yeast UUG start-1 | -1.9 | -1.0 | 139.7* | 441.8*
RAD52 anneal inh | -14.5 | -8.5 | -3.4 | nt
Yeast UUG start-2 | nt | nt | i | 7.8

High-throughput results (PubChem)
